The target of the test is heparan sulfate proteoglycan (HSPG) on the surface of human cells. In words: GFP/DAPI fluorescence ratio on human smooth muscle primary cells (SMC).

Consider “N-terminal GFP-tagged HlpA (histone-like protein A from Streptococcus gallolyticus) (from UniProt P42212 1-238)”, for which the fold weaker binding affinity than to colorectal cell lines came to 6 fold.

Values taken from patent US20210393705A1.
